Literature values in article PMC4798892.

Key:
[1] = target: Histone H3 (H3K4me0) (Homo sapiens) (UniProt P68431)
[2] = target: Histone H3 (H3T3ph) (Homo sapiens) (UniProt P68431)

In the case of DNMT3A ADD (from UniProt Q9Y6K1), the Kd [1] is given as 0.82 µM and the Kd [2] is given as 59.9 µM.
